Laboratory results taken from patent US9688708B2, “Photolabile compounds” (The Trustees of Columbia University In The City of New York, priority 2003, dated 2017).

Assays:
[1] = test system: Retzius (Rz) cells in the ganglion; assay: Intracellular voltage recording of leech ganglion neuron with Xe flash irradiation; details: during the experiments
Procedure: Hirudo medicinalis has a central nerve cord with several ganglia, each one containing about 400 neurons arranged in a known pattern. (W.-R. Schlue et al., 1980, J. Exp. Biol., 82:23-34). An entire ganglion was mounted on a dish. The transmembrane potential for a single cell (a neuron) in the ganglion was recorded by inserting inside the neuron a glass micropipet with a micrometer-sized end, filled with saturated aqueous KCl that acts as a luggin bridge for an Ag/AgCl electrode. Another Ag/AgCl electrode was used as a reference. The signal was taken with an AM-System 1600 amplifier, and the entire setup was covered with a Faraday cage. A 12 bit A/D acquisition card was used to digitize the data using an ad-hoc program written in QuickBasic.
Low Ca^2+-high Mg^2+ saline solution (NaCl, 102 mM; KCl, 4 mM; CaCl2: 1 mM; and MgCl2: 10 mM; Tris base, pH 5.4 adjusted to 7.4) was perfused through the dish. […] A pulsed Xe lamp located under the dish was used to irradiate the solution. UV light was removed using a band-pass filter at 500 nm.
After impaling the cell with an electrode, many experiments were performed on the same cell to ensure reproducibility. […] 300 seconds later, at 5500 s, a light flash was directed to the ganglion.

[Ru(bpy)2(4AP)2]Cl2
toxicity on the neuron [1]: Neither toxicity nor a deleterious effect was observed
stability in the dark (in the dark): stable in the dark
solubility in water (water): very soluble
